Measured water solubility values of organic chemicals

From the experimental data distributed with OPERA 2.9.

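The OPERA project collected these measurements from public sources as training and test data for property models. A listed value is a point estimate from one report or more. Method and conditions are not stated for these values. The measured form (salt, isomer or mixture) is not always the one drawn. Unmarked limits or estimates from the upstream databases cannot be ruled out.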

Water solubility is log10 of mol/L, nominally at 25 °C; higher is more soluble. Cells with "–" have no entry in this list.

log solubility (log10 mol/L) | SMILES | name
-2.507 | NC(=O)OCC(COC(N)=O)c1ccccc1 | Felbamate
-0.988 | CCN(CC)C(=O)CCC(=O)OCn1ncc2c(O)ncnc21 | –
-2.201 | CCOC(=O)CC(=O)c1ccccc1 | Ethyl benzoylacetate
-0.931 | CCOC(=O)CNC(=O)c1ccco1 | Ethyl N-(furan-2-carbonyl)glycinate
-0.616 | CC(C)Oc1ccc(COc2ccc(CC(=O)O)cc2Cl)cc1 | –
-2.645 | CC1(C)CC(N)C(C)(C)N1O.N.[Cl-].[Cl-].[Pt+2] (configuration not stated) | –
-0.48 | O=C(O)c1ccco1 | 2-Furancarboxylic acid
-3.289 | N#CCC(=O)Nc1ccc(Cl)cc1 | Acetamide, N-(4-chlorophenyl)-2-cyano-
-1.482 | O=C(O)c1ccccc1C(=O)OCCO | 2-[(2-Hydroxyethoxy)carbonyl]benzoic acid
-7.09 | Clc1cccc(Oc2ccc(Cl)c(Cl)c2Cl)c1 | –
-8.55 | Clc1cc(Cl)c(Cl)c(Oc2ccc(Cl)c(Cl)c2Cl)c1 | 2,2',3,3',4,5'-Hexachlorodiphenyl ether
-2.088 | CC(C)(C)c1ccc(N)cc1 | 4-tert-Butylaniline
-3.504 | CCCOC(=O)Cn1cc(I)c(=O)c(I)c1 | Propyliodone
-7.86 | Clc1cc(Cl)cc(Oc2ccc(Cl)c(Cl)c2Cl)c1 | 2,3,3',4,5'-Pentachlorodiphenylether
-4.399 | O=C1c2ccccc2-c2ccc3c4c([N+](=O)[O-])cc5c6c(ccc(c7ccc1c2c73)c64)C(=O)c1ccccc1-5 | Anthra[9,1,2-cde]benzo[rst]pentaphene-5,10-dione, 16-nitro-
-3.98 | N#Cc1ccc2c(c1)N(CCCN1CCC(O)CC1)c1ccccc1S2 | Periciazine
-7.51 | CCCCOC(=O)C1C(C(=O)OCCCC)C2(Cl)C(Cl)=C(Cl)C1(Cl)C2(Cl)Cl (configuration not stated) | Dibutyl chlorendate
-2.719 | OCCC(F)(F)C(F)(F)C(F)(F)C(F)(F)F | 4:2 Fluorotelomer alcohol
-2.839 | CCOC(=O)c1ccc(C)cc1 | Ethyl 4-methylbenzoate
-7.35 | Clc1ccc(Oc2c(Cl)ccc(Cl)c2Cl)cc1Cl | 2,3,3',4',6-Pentachlorodiphenyl ether
-5.072 | O=C(N/N=C/C=C/c1ccc([N+](=O)[O-])o1)c1ccc(Br)o1 | –
-4.47 | c1ccc(C2CCCCC2)cc1 | Cyclohexylbenzene
-1.456 | CCCCCCN1CC(C(=O)O)CC1=O (configuration not stated) | 1-hexyl-5-oxopyrrolidine-3-carboxylic acid
-0.88 | OC1CCCCCC1 | Cycloheptanol
-2.657 | CCOC(=O)CC[C@@H]1CC[C@H](CCC(=O)OCC)O1 | –
-1.73 | CC1(C)C(=O)NC(=O)N1CN1C(=O)NC(=O)C1(C)C | 1,1'-methylenebis(5,5-dimethylimidazolidine-2,4-dione)
-2.1 | COc1cccc(NC(=O)N(C)C)c1 | Urea, 3-(m-methoxyphenyl)-1,1-dimethyl-
-8.479 | COc1ccc(C(=O)Nc2ccccc2)cc1N=Nc1c(O)c(C(=O)Nc2ccc3[nH]c(=O)[nH]c3c2)cc2ccccc12 | C.I. Pigment Red 176
-0.739 | O=C(O)CNCC(=O)O | Iminodiacetic acid
-2.434 | Nc1cc(C(=O)O)ccc1S(=O)(=O)O | 3-Amino-4-sulfobenzoic acid
-6.32 | Brc1cc2ccccc2cc1Br | Naphthalene, 2,3-dibromo-
-7.686 | CC(Br)(CBr)COc1c(Br)cc(C(C)(C)c2cc(Br)c(OCC(C)(Br)CBr)c(Br)c2)cc1Br (configuration not stated) | –
-1.593 | CCC=CC=CC=O | 2,4-Heptadienal
-4.36 | CO/N=C(\C(=O)N[C@@H]1C(=O)N2C(C(=O)O)=C(CSC(=O)c3ccco3)CS[C@H]12)c1csc(N)n1 | Ceftiofur
-2.2 | COc1ccc(NC(C)=O)cc1Cl | Acetamide, N-(3-chloro-4-methoxyphenyl)-
-2.09 | O=c1c2ccccc2nc2n1CC[C@@H]2O | 3-Hydroxy-2,3-dihydropyrrolo[2,1-b]quinazolin-9(1H)-one

Extract of 5 entries:

| SMILES | name | log solubility (log10 mol/L) |
|---|---|---|
| CC(C)Oc1ccc(COc2ccc(CC(=O)O)cc2Cl)cc1 | – | -0.616 |
| CO/N=C(\C(=O)N[C@@H]1C(=O)N2C(C(=O)O)=C(CSC(=O)c3ccco3)CS[C@H]12)c1csc(N)n1 | Ceftiofur | -4.36 |
| CCOC(=O)CNC(=O)c1ccco1 | Ethyl N-(furan-2-carbonyl)glycinate | -0.931 |
| NC(=O)OCC(COC(N)=O)c1ccccc1 | Felbamate | -2.507 |
| N#Cc1ccc2c(c1)N(CCCN1CCC(O)CC1)c1ccccc1S2 | Periciazine | -3.98 |